Among the data in PubChem BioAssay AID2073 (Sanford-Burnham Center for Chemical Genomics, 2009) are inhibition values, retold here.

Protein sequences, listed by entry. Tags and fused reporters are not part of them.
UniProt Q00975, whole entry, looked up: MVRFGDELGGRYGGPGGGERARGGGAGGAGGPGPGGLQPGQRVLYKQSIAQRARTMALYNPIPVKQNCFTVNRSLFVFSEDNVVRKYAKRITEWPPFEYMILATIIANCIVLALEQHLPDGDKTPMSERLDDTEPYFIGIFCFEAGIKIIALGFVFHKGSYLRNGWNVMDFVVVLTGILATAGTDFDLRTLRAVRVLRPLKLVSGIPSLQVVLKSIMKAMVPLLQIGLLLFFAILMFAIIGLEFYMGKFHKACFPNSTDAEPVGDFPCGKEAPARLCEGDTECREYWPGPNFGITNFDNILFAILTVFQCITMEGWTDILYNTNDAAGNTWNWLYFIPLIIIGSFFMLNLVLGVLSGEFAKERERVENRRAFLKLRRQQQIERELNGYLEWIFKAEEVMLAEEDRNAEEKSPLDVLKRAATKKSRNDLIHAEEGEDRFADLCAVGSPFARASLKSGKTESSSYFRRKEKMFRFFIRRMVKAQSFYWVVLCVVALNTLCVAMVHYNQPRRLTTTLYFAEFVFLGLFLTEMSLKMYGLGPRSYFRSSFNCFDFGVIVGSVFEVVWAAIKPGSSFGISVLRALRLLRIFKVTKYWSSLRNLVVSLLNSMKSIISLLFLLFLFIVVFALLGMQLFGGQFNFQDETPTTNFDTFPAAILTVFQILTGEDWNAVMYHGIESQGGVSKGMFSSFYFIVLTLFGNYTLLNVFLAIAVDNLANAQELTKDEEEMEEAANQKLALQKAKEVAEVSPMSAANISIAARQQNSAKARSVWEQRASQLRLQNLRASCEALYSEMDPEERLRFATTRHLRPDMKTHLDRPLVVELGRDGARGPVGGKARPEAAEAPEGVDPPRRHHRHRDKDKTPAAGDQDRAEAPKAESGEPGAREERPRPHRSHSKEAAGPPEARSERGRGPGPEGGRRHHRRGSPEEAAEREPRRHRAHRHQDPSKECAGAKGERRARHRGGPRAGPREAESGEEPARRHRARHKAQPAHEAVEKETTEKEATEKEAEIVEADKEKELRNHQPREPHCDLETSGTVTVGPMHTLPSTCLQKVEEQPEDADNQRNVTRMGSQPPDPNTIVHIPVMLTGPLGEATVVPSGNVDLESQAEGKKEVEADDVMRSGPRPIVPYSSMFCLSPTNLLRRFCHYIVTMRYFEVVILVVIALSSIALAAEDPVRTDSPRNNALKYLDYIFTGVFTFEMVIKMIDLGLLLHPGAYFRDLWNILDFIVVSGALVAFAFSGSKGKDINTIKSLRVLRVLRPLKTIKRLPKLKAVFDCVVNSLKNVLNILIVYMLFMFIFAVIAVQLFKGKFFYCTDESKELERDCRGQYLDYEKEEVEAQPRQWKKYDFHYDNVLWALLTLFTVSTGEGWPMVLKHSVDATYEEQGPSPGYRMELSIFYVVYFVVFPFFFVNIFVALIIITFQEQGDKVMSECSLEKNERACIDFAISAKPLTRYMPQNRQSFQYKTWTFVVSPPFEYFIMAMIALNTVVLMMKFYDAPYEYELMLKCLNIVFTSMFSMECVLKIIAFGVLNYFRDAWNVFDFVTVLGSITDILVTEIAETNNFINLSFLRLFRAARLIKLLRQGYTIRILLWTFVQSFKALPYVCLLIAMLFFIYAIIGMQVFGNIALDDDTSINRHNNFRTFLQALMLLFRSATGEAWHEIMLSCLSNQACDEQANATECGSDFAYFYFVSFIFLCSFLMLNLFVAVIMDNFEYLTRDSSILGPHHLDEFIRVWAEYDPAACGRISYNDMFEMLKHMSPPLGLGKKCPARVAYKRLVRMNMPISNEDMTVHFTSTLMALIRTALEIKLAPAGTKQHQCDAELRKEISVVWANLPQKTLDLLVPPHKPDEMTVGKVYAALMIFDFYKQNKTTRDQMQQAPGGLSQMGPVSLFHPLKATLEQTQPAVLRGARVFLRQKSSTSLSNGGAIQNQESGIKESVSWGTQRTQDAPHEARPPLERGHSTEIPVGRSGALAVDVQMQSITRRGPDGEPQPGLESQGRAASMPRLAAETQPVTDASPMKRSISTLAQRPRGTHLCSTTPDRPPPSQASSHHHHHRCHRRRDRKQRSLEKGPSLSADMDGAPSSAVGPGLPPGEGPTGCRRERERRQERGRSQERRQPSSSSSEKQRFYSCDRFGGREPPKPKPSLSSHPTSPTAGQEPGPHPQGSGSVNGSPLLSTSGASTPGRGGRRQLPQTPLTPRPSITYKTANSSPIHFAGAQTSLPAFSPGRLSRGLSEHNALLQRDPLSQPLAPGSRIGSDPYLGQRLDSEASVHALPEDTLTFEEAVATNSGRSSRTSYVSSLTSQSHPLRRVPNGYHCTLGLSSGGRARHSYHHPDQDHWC

Structures are written as SMILES. The entries are a selection whose mix differs from that of the whole data set. Measured potencies and affinities stand elsewhere. Calls of active or inactive are those of the source. Cut-off read from the data, not from the text of the source: active = inhibition mostly above about 51% (no sharp cut-off); inconclusive = no clear call, values can overlap the other calls; inactive = mostly below about 53%.

The target in the assay is Voltage-dependent N-type calcium channel subunit alpha-1B (Homo sapiens) (UniProt Q00975). Kind of assay: inhibitors of Mint1-CaV2.2 protein interaction, biochemical, HTRF (AID 2073). The note with it: at 20 µM, stronger effect = higher value.
`O=P1(Nc2ccccn2)COc2ccccc2OC1`: the inhibition – broadly, the drop in the measured response relative to a control, in per cent – is inactive: -1%.
Under `CCOP(=O)(Nc1ccc(C)cn1)OCC` stands inactive: 15.4%; under `CC(C)(C)C(=O)NC(Sc1ncccn1)C(Cl)(Cl)Cl` (stereo not given), inactive: -53.9%.
Next, `Clc1n[nH]nc1-c1nn[nH][15n]1`: inactive: 6.5%; `CN(C(=O)Cc1ccc(Cl)c(Cl)c1)[C@@H]1CCCC[C@H]1N1CCCC1`: inactive: -3.3%.
Next, `CC(C)/C=N\N=C(\N)N[N+](=O)[O-]`: inactive: 6.8%; `O=[As](O)(c1ccccc1Br)c1ccccc1Br`: inactive: 10.1%; `COP1(=S)c2c(C)nn(CCC#N)c2N=C(c2ccc(F)cc2)N1C` (stereo not given): inactive: -8%.
Consider `O=C(Nc1ccncc1[N+](=O)[O-])c1ccc([N+](=O)[O-])cc1[N+](=O)[O-]`, for which the inhibition was inactive: 11.9%.
With `O=C(COc1ccccc1)OC1CN2CCC1CC2` (stereo not given), the inhibition was inactive: -2%.
Next, `O=C(OC1CN2CCC1CC2)c1cccc([N+](=O)[O-])c1` (stereo not given): inactive: 2.9%; `CCOC(=O)c1ccc(NC(=O)C(C)(CCl)SC)cc1` (stereo not given): inactive: -1.8%.
Under `CCC(C)N(CC(C)C)C(=S)SC(NC(C)=O)C(Cl)(Cl)Cl` (stereo not given) stands inactive: -20.6%; under `CCOC(=O)Nc1ccc([As](=O)(O)O)c(O)c1`, inactive: 10.3%; under `Cc1cc(SC(NC(=O)c2ccccc2)C(Cl)(Cl)Cl)nc(C(C)C)n1` (stereo not given), inactive: -1.1%.
Under `CCCCOc1ccc(C(=O)NCC2(N3CCCCC3)CCCCC2)cc1OC` stands inactive: 28%; under `CCOC(=O)Nc1cccc([As](=O)(O)O)c1`, inactive: 10.3%.
In the case of `Cc1cc(SC(NC=O)C(Cl)(Cl)Cl)ncn1` (stereo not given), the inhibition was inactive: -1.4%.
Under `O=P(Nc1ccccn1)(c1cccc2ccccc12)c1cccc2ccccc12` stands inactive: 0.2%; under `O=[N+]([O-])c1ccc(Nc2ccc(Oc3ccc([N+](=O)[O-])cc3[N+](=O)[O-])cc2)c([N+](=O)[O-])c1`, inactive: 19%.
Under `O=[As](O)(c1ccc(O)cc1)c1ccccc1O` stands inactive: -2.6%.
Under `C[As](=O)(O)c1cccc(C(=O)O)c1` stands inactive: 3.7%; under `Cc1ccc(OP(=O)(Nc2ccc([N+](=O)[O-])cn2)Oc2ccc(C)cc2)cc1`, inactive: 17.9%.
For the molecule `Cc1ccc2nc3c(c(C)c2c1)CC(C(Cl)Cl)S3` (stereo not given), the inhibition was inactive: 13%.
Regarding `ClCCSc1nnc(-c2cccnc2)o1`, the inhibition was inactive: 5.5%.
For the molecule `CC(C)c1ccc(OP(=O)(Nc2ccccn2)Oc2ccccc2F)cc1` (stereo not given), the inhibition was inactive: 22.1%.
Next, `O=[N+]([O-])c1cc([N+](=O)[O-])c(-c2ccn[nH]2)s1`: inactive: 21%; `CCN(CC)C(=S)SC(NC=O)C(Cl)(Cl)Cl` (stereo not given): inactive: -21.1%.
As to `CC(C)NC(=O)NP(=O)(Oc1ccccc1)Oc1ccccc1`, the inhibition is inactive: 7.3%.
With `Cc1c2c(nc3ccccc13)SC(C(Cl)Cl)C2` (stereo not given), the inhibition is inactive: 17.7%.
Next, `Cc1cc(=O)[nH]c(N[N+](=O)[O-])n1`: inactive: -0.8%; `O=C(OC1CN2CCC1CC2)C12CC3CC(CC(C3)C1)C2` (stereo not given): inactive: -3.9%; `COc1cc(I)ccc1[As](=O)(O)O`: inactive: 1%.
Next, `COc1ccc2nc(NP(=O)(c3ccccc3)c3ccccc3)sc2c1`: inactive: -2.4%; `COc1ccc(N/C(=N/P(=O)(N2CCOCC2)N2CCOCC2)N2CCOCC2)cc1`: inactive: -1.9%.
